Laboratory results from patent US20230104728A1.

Biological target: Her2 (UniProt P04626)
Assay: cell-based or functional assay

Trastuzumab emtansine (antibody)
EC50 of in vitro cytotoxicity (MTS cell viability assay) on JIMT-1 cells: 3.74 µg/mL
